# Values quoted from earlier work, collected in patent US7297551B2, “Recombinant proteins and peptides for endotoxin biosensors, endotoxin removal, and anti-microbial and anti-endotoxin therapeutics” (priority 1998, dated 2007).
# Assays:
# THP-1 monocytes = conditions: reference 29; cited from earlier work
# cell lysis = conditions: reference 29; cited from earlier work
Substance,concentration at which 50% cell lysis occurred (THP-1 monocytes),concentration at which 50% cell lysis occurred (cell lysis)
Polymixin B,510 µg/mL,–
polymixin B,–,510 µg/mL
